## Antibody variant affinities, Ab-91 heavy chain, assay 2

Reference: Engelhart et al. 2022, doi:10.1038/s41597-022-01779-4. File: FLAb, binding data.

All variants were tested on one target, the spike HR2 peptide PDVDLGDISGINAS (SARS-CoV-2).

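Phage display of a naive human antibody library on the peptide gave the parent. AAYL51 was designed without a model: most single CDR substitutions and a random sample of double and triple ones. AlphaSeq pools MATa yeast showing the antibodies with MATalpha yeast showing the peptide. Pairs that bind mate more often; barcode pairs of the diploids are counted by sequencing. Read counts were normalised to the haploid input and turned into Kd by a linear fit to BCL2-family pairs of known affinity, for each replicate. There are three technical replicates.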

Parent: Ab-91, a human scFv built as VL, the linker GGGGSGGGGSGGGGS, VH. Only the CDRs of the heavy chain vary.
VL: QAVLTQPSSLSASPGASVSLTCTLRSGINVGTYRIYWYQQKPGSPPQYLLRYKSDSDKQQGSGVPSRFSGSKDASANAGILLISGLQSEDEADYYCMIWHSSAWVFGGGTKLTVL
VH: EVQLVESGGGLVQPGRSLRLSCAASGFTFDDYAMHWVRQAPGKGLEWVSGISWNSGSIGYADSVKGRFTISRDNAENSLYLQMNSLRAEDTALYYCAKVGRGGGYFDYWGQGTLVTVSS

Each variant is given by its three heavy chain CDRs, as the data file delimits them; those of the parent are GFTFDDYAMH, GISWNSGSIGYADSVK, VGRGGGYFDY.
Affinities are written as log10 Kd with Kd in nM; a lower number is a better binder.
The mean shown is taken over the replicates in which the pair was detected.
An entry "ND" has no value in the source: the pair was not observed among the diploids in that replicate. This suggests poor binding but is not conclusive.
Three control strains display no target. For library AAYL51, 21% of the pairings with them gave a signal, with a median of 4.54 and one signal in twenty below 3.26, so weak values seen in few replicates may be background. The control count says in how many pairings with the empty strains this scFv gave a signal.

GFTFDDYAMH / GFSWNSGSIGYAQSVK / VGRGGGYFDP: 4.66, 5.28, ND (mean 4.97; controls 1 of 9).
GFTFDDYAMH / GISWNSESIGYLDSVK / VGQGGGYFDY: 3.83, ND, ND (controls 0 of 9).
GFTFSDYAMH / GISWNFGSIGYADSVK / VGREGGYFDY: ND, ND, ND (controls 3 of 9).
GFTFDIYAMH / GISWNSGSCGYADSVK / VGRGGGYNDY: 4.23, 4.71, 3.48 (mean 4.14; controls 4 of 9).
GFTFDDYAMH / GISWNSGSIGGADCVK / VGRGGGLFDY: 4.81, ND, ND (controls 0 of 9).
EFTFDDYAMH / GISWNSGSIGYADSVK / VGRKCGYFDY: 5.39, 4.85, 4.10 (mean 4.78; controls 2 of 9).
GETFDDYAMH / GISWNSGSIGYADEVK / VGRGGGYFDY: ND, 4.69, 5.24 (mean 4.96; controls 2 of 9).
GFTFDDYAMH / SISWNSVSIGYARSVK / VGRGGGYFDY: 4.09, 4.34, ND (mean 4.21; controls 4 of 9).
GFTFDDYAMH / GISWNSGSIGYAYSVK / VGPGGGYNDY: ND, ND, ND (controls 3 of 9).
GFTFDDYAMH / YISWNSGSIGYADSVK / LGRGGGYFDY: ND, ND, ND (controls 1 of 9).
GFTFDDYAMH / GISWNSYSIGYRDSVK / VGRGGGYFDY: 4.76, 4.45, 5.07 (mean 4.76; controls 8 of 9).
GFNFDDYAMH / GISWNGGKIGYADSVK / VGRGGGYFDY: 2.70, 2.57, ND (mean 2.64; controls 1 of 9).
GFTFDDYAMH / GISWNSGSIGYVDEVK / VGRGGGYFMY: ND, ND, ND (controls 0 of 9).
GFTFDDYHMH / GISWNHGSIGYADSVK / VGRGAGYFDY: 3.26, ND, ND (controls 0 of 9).
GFTFDDYAMH / GISPNSGSINYADMVK / VGRGGGYFDY: ND, 5.97, 4.71 (mean 5.34; controls 1 of 9).
GFTFDDYAMH / GISWNSGSIGNADSVK / VQRGGGYFDP: 5.87, 5.66, 5.09 (mean 5.54; controls 6 of 9).
GFTFDDYAMH / GASWNSGSIGYADRVK / DGRGGGYFDY: ND, ND, 3.71 (controls 1 of 9).
TFTFDDYAMH / RISWNSGSIGYAESVK / VGRGGGYFDY: 3.87, ND, ND (controls 3 of 9).
LFTFCDYAMH / GISWNSGSIGYLDSVK / VGRGGGYFDY: 3.77, ND, ND (controls 3 of 9).
GFDFDDYAMH / GISWNSGSIGYADSVK / VGRGGGYFDY: 2.88, 2.09, ND (mean 2.49; controls 0 of 9).
GFTFDDYAMH / GISWKSGSIGYHDSNK / VGRGGGYFDY: ND, ND, ND (controls 0 of 9).
GFTFDDYAMH / GISWNSGSIGYADSVK / VGRGSGNFMY: ND, ND, ND (controls 0 of 9).
GFTFDDYAMH / GIGWNSGSIGYADSNK / VGRGGGYFDY: ND, 3.34, ND (controls 1 of 9).
GFTFDMQAHH / GISWNSGSIGYADSVK / VGRGGGYFDY: ND, ND, ND (controls 2 of 9).
GFRFDDYATH / GIHWNSGSIGYADSVK / VGRGGGYFDY: ND, ND, ND (controls 0 of 9).
GFTFDDYAQH / GISWNSGSIGYADPVW / VGRGGGYFDY: 4.65, 6.02, ND (mean 5.34; controls 6 of 9).
GFTFDDYAMH / GINWNSGSIGYADSVK / VLRGGGYFDY: 2.42, ND, 1.43 (mean 1.92; controls 0 of 9).
GFTFDDYAMH / GISWLSGSIGYSDSVK / VGNGGGYFDY: ND, ND, ND (controls 0 of 9).
GFTFDDLARH / GISWNSGSIGYADSVK / VDRGGGYFDY: ND, ND, ND (controls 1 of 9).
GFTFDDNAMH / GISWNLGSIGYADSVK / VGRGGGYFDY: ND, ND, ND (controls 0 of 9).
GFTFDDYAMH / GISWNSGSIGYADWVK / VGRGGGYFDY: 0.94, 0.92, 0.36 (mean 0.74; controls 6 of 9).

Again, the first 3 entries without any signal:

{"CDR-H1": "GFTFSDYAMH", "CDR-H2": "GISWNFGSIGYADSVK", "CDR-H3": "VGREGGYFDY", "log10 Kd (nM) by replicate": "ND, ND, ND", "mean log10 Kd (nM)": "ND", "empty controls": "3/9"}
{"CDR-H1": "GFTFDDYAMH", "CDR-H2": "GISWNSGSIGYAYSVK", "CDR-H3": "VGPGGGYNDY", "log10 Kd (nM) by replicate": "ND, ND, ND", "mean log10 Kd (nM)": "ND", "empty controls": "3/9"}
{"CDR-H1": "GFTFDDYAMH", "CDR-H2": "YISWNSGSIGYADSVK", "CDR-H3": "LGRGGGYFDY", "log10 Kd (nM) by replicate": "ND, ND, ND", "mean log10 Kd (nM)": "ND", "empty controls": "1/9"}